In PubChem BioAssay AID556 (SRMLSC, 2006):
Only a part is listed here, and it is no random draw. Some results for these compounds are left out of this collection, so the calls shown say nothing about other tests. Active and inactive are the calls of the source.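 How the source made its calls: active means the 320 compounds with the highest percent inhibition in the single-dose primary screen, excluding strongly autofluorescent ones (cut at about 32% in these data); inactive means the rest, inconclusive results apart.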

test system: diphosphomevalonate decarboxylase (Streptococcus pneumoniae D39); experiment: diphosphomevalonate decarboxylase activity blockers – biochemical, PK/LDH-coupled NADH fluorescence, primary screen (AID 556); conditions: purified DPM-DC, at 10 µM

Compound	outcome
O=C(OC1CN2CCC1CC2)C(CO)(c1ccccc1)c1ccccc1 (configuration not stated)	inactive
CN(C)c1cccc(C(=O)NCC2(N(C)C)CCCCC2)c1	inactive
